Results: patent US20260055110A1 (Azura Ophthalmics Ltd., priority 2021, published 2026)

What was measured:
[1] = Aqueous Hydrolysis Stability Assay; conditions: DPBS pH 7.4, 37° C.; t = 42
Experimental: Example 2: Aqueous Hydrolysis Stability Assay
Determination of aqueous stability of the test compounds was performed using UPLC-MS. A test compound 10 mM stock solution was prepared in DMSO. 10 μL of the DMSO stock solution was dissolved in 990 μL of DPBS pH 7.4 buffer to prepare a 100 μM stock. A further dilution was made by dissolving 75 μl of 100 μM stock into 225 μL of DPBS. Final DMSO concentration is 0.25%. The solution is kept at 37° C. and injected without delay into the LCMS (Waters Xevo TQ-). Additional injections were performed at appropriate time points.
Half-life (T1/2) of the parent conjugate was calculated using the peak area or measured concentration of the parent conjugate at each time point in the linear region of the log—linear plot.

Rabbit Cornea Esterase = test: Rabbit Cornea Homogenate Stability Assay (Rabbit Cornea Esterase Assay); conditions: NZW, 37° C.
Experimental: Example 1: Rabbit Cornea Homogenate Stability Assay
Determining Rabbit Cornea Homogenate stability of the test compounds was performed using UPLC-MS. […]
Three to four rabbit corneas (e.g., New Zealand Whites (NZW) or Dutch Belted (DB)) of approx. 50 mg each were sliced and scraped with a scalpel and tweezers until reduced to small (1-3 mm), thin pieces. These were transferred into a glass vial containing approximately 2 mL of cold DPBS pH 7.4 buffer.
Sample was cooled intermittently on ice and shear homogenized for 3 minutes, then centrifuged for 3 min at 13,000 g. The supernatant was pipetted off into a vial, and total protein concentration determined at 280 nm. Sample was stored at −78° C. […]
A heater shaker was set to 37° C. Into a suitable 96 well plate (Run Plate), 70 μL of 300 or 900 ng/μl esterase homogenate was pipetted into two rows as compounds were analyzed in duplicate (2 min, 5 min, 10 min, 20 min and 45 min). […]
To both rows of the Run Plate, 70 μL of 10 μM compound solution was added. […] Samples were analyzed as soon as practicable by UPLC-MS (Waters Xevo TQ-S).
A heater shaker was set to 37° C. Into a suitable 96 well plate (Run Plate), 80 μL of 300 or 900 ng/μL esterase homogenate was pipetted into two rows as compounds were analyzed in duplicate (2 min, 5 min, 10 min, 20 min and 45 min). […]

SMILES: CC(=O)N[C@@H](CS)C(=O)O[C@]1(C(=O)O)CC[C@H]2[C@@H]3CCC4=CC(=O)C=C[C@]4(C)[C@H]3[C@@H](O)C[C@@]21C
- Aqueous Stability (DPBS) T1/2 after t min [1]: 0.562 h
- Esterase (0.15 mg/mL) T1/2 (45 min) (Rabbit Cornea Esterase; rabbit cornea homogenate 0.15 mg/mL): >2 h
- Esterase (0.45 mg/mL) T1/2 (45 min) (Rabbit Cornea Esterase; rabbit cornea homogenate 0.45 mg/mL): 1.98 h
